Experimental data published in ChEMBL document CHEMBL1125598, “HIV protease: a novel chemotherapeutic target for AIDS” (J Med Chem, 1991).

Molecular target: Human immunodeficiency virus type 1 protease (Human immunodeficiency virus 1, UniProt Q72874)
Assay: Binding affinity for HIV-1 protease

With `O=C(CCCN1CCC(O)(c2ccc(Cl)cc2)CC1)c1ccc(F)cc1` [HALOPERIDOL] the Ki was 100 nM.
